According to PubChem BioAssay AID374 (University of Pittsburgh Molecular Library Screening Center, 2006):
Only a part is listed here, and it is no random draw. Some of these compounds have results that are not shown, active ones among them. The source made the active and inactive calls.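 The calls were made as follows: active = inhibition above about 50% (limit read from the data); inconclusive = inhibition over screen mean plus 3 SD, below that limit; inactive = the rest.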

Protein sequences, listed by entry. Tags and fused reporters are not part of them.
UniProt P28562, whole entry: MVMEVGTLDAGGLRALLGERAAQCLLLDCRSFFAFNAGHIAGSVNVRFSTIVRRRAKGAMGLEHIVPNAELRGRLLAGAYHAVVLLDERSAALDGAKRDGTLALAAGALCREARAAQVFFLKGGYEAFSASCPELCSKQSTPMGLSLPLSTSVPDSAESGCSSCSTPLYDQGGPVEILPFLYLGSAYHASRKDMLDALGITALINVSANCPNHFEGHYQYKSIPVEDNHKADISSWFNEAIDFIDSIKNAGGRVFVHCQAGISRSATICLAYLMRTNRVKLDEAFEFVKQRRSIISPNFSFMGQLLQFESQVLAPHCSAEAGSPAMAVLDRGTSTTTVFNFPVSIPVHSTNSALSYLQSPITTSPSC

These compounds were tested against Dual specificity protein phosphatase 1 (Homo sapiens) (UniProt P28562) (assay: MKP-1 phosphatase inhibitors, primary screen, biochemical, in vitro (AID 374;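 also: 0% = DMSO max control wells and 100% = wells with enzyme stopped by NaOH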)). Details: recombinant MKP-1, OMFP hydrolysis fluorescence; stronger effect = higher value;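 compounds tested at a single concentration somewhere between 10 and 100 µM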.

Question: For `CN(C)c1cccc(C(=O)NCC2(N(C)C)CCCCC2)c1`, which inhibition is on record?
Answer: Its inhibition is inactive: -3.18%.

Question: How did the inhibition turn out when `O=C(OC1CN2CCC1CC2)C(CO)(c1ccccc1)c1ccccc1` (configuration not stated) was run?
Answer: The inhibition was inactive: -7.36%.
